Experiment [1] deals with Dual specificity protein kinase CLK3 (Homo sapiens) (UniProt P49761). The note with it: at 1 µM.
In experiment [2] the target is Death-associated protein kinase 2 (Homo sapiens) (UniProt Q9UIK4). As to conditions: at 10 µM.
Experiment [3] addresses Serine/threonine-protein kinase 4 (Homo sapiens) (UniProt Q13043). The note with it: at 1 µM.
In experiment [4] the target is T1, Serine/threonine-protein kinase Nek6 (Homo sapiens) (UniProt Q9HC98).
T1 sequence (whole entry): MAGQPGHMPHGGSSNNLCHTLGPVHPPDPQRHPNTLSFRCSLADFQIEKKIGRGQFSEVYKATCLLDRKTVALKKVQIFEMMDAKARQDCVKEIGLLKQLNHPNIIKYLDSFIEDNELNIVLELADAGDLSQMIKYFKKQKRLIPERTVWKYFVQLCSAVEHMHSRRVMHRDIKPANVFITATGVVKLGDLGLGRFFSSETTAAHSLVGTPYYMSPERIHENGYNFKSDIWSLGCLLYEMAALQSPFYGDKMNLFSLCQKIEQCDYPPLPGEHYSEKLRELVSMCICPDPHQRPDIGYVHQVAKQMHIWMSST
As to conditions: at 10 µM.

Chains of the proteins cited; added tags and fusions are not shown. Lines headed by an entry give the natural chain unless they say otherwise; changes in a name come on top.
UniProt P49761: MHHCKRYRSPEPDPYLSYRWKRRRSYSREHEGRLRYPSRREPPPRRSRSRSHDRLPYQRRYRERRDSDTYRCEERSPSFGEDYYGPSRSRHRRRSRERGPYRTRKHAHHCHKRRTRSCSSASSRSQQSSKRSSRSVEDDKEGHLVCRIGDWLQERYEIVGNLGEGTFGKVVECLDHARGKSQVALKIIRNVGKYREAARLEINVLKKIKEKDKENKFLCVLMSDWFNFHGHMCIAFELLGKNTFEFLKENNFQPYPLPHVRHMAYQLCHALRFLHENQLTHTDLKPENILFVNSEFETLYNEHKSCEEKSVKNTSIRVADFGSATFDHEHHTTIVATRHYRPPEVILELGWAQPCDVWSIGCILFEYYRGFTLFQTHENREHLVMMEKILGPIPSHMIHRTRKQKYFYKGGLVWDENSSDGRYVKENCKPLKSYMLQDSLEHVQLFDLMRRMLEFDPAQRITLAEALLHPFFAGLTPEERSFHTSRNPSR
UniProt Q9UIK4: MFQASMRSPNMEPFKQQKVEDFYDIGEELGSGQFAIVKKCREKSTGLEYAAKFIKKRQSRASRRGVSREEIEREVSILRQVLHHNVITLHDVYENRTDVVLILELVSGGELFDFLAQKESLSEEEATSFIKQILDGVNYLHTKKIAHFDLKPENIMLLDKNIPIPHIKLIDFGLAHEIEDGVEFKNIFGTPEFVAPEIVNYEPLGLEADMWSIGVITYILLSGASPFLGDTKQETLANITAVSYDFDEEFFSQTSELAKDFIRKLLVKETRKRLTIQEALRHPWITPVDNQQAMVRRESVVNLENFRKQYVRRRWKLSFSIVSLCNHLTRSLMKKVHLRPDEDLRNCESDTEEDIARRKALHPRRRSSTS
UniProt Q13043: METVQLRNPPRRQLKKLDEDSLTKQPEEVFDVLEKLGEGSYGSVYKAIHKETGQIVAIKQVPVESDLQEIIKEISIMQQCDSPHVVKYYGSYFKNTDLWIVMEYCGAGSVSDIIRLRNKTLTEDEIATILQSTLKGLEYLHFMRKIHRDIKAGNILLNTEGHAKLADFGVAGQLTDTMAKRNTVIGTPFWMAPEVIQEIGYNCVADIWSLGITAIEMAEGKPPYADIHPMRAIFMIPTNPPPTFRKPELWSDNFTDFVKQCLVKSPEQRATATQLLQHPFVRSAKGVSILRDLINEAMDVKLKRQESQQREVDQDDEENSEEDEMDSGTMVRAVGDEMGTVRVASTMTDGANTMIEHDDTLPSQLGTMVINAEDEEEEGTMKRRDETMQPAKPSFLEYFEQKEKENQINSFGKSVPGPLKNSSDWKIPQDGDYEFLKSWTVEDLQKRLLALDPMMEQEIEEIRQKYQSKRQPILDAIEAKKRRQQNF

Experiment [5] has as its target Protein kinase C gamma type (Homo sapiens) (UniProt P05129). As to conditions: at 10 µM.

The structures appear in SMILES notation. For some assays here: Most of the strong results are listed elsewhere, so they are rarer here than in the full data. The entries are a selection whose mix differs from that of the whole data set.

For orientation: residual activity means the signal under treatment as a percentage of the control signal. As to `CC(=O)c1ccc(N2CCOCC2)cc1O`, the residual activity in experiment [1] was 85%.
For the compound `Cc1nc(-c2ccccc2)c(-c2ccncc2)o1`, the residual activity is 96% in experiment [2], 85% in experiment [3], 116% in experiment [4] and 107% in experiment [5].

The values are drawn from ChEMBL document CHEMBL2218924, “A broad activity screen in support of a chemogenomic map for kinase signalling research and drug discovery” (Biochem J, 2013).
